Measured values published in ChEMBL document CHEMBL3868617, “Synthesis, COX-1/2 inhibition activities and molecular docking study of isothiazolopyridine derivatives” (Bioorg Med Chem, 2017).

Sequences of proteins named here, by UniProt entry; tags and fusion partners are left off.
UniProt P23219, whole entry: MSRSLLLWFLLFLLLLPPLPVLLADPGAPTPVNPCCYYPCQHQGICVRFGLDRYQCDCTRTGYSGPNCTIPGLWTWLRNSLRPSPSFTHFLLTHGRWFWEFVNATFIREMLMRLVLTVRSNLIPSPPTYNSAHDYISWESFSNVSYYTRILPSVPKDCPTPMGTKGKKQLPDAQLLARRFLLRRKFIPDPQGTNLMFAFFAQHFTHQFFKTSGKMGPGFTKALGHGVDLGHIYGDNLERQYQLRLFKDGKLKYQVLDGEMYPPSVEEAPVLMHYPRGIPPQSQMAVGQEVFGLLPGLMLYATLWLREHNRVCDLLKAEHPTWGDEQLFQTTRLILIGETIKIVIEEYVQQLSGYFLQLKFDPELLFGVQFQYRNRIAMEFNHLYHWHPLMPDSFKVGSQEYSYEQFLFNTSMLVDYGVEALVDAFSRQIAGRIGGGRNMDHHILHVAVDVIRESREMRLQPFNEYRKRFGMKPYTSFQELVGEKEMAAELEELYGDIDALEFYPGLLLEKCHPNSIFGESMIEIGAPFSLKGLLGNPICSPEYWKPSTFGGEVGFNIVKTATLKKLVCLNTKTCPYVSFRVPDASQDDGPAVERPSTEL

Tests used:
[1] = target: T1, Prostaglandin G/H synthase 1 (Homo sapiens, UniProt P23219); assay: Inhibition of COX-1 (unknown origin)
[2] = target: T1, Prostaglandin G/H synthase 1; assay: Inhibition of COX-1 (unknown origin) using arachidonic acid as substrate preincubated for 2 mins followed by substrate addition in presence of TMPD by spectrophotometric analysis

Row | SMILES | IC50 [1] [µM] | IC50 ([2]; read-out: IC50) [µM] | IC50 ([2]; read-out: pIC50 (converted)) [µM]
1 | CC(C(=O)O)c1ccc(-c2ccccc2)c(F)c1 (stereo not drawn) [FLURBIPROFEN] | 0.01 to 2 | – | –
2 | CN1C(C(=O)Nc2ccccn2)=C(O)c2ccccc2S1(=O)=O [PIROXICAM] | – | 255 | 85.1
